## Antibody variant affinities, Ab-14 light chain, assay B

Source: Li et al. 2023 (doi:10.1038/s41467-023-39022-2), MIT Lincoln Laboratory and A-Alpha Bio; data file from the FLAb repository.

All variants were tested on one target, the spike HR2 peptide PDVDLGDISGINAS (SARS-CoV-2).

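The parent was found by panning a naive human phage display library on the peptide. Designed CDR sequences, proposed from the first random library and measured here. Group labels follow the data file (Ctrl: baseline library sampled from a position-specific scoring matrix, with some repeated check sequences; GP: Gaussian process model; HC: hill climbing; Gen: genetic algorithm; Gibbs: Gibbs sampling; a sequence that several methods proposed may carry one label only). The scFvs were displayed on barcoded MATa yeast, the peptide on MATalpha yeast. Binding brings cells together so that they mate, and sequencing counts the barcode pairs among the diploids. The ratio of observed to expected reads was calibrated, replicate by replicate, on BCL2-family standards whose Kd was known from biolayer interferometry. There are six technical replicates.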

Parent scFv Ab-14: VH joined to VL by a 15-residue (Gly4Ser)3 linker. Changes lie in the light chain CDRs alone.
VH: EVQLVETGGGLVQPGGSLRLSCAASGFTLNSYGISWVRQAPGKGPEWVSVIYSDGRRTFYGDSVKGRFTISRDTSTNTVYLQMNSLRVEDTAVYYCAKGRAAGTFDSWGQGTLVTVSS
VL: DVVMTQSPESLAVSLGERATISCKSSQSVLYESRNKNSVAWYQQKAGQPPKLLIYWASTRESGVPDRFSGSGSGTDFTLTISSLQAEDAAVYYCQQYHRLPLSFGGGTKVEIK

Each variant is given by its three light chain CDRs, as the data file delimits them; those of the parent are KSSQSVLYESRNKNSVA, WASTRES, QQYHRLPLS. This list holds designs with at most six substitutions. Kd is apparent (estimated from mating counts) and averaged on the log scale over replicates with a signal. Smaller is tighter. An entry "nd" has no value in the source: the pair was not observed among the diploids in any replicate. This suggests poor binding but is not conclusive. Background: pairings of all light chain designs with three empty control strains gave a value in 4% of cases (median 430 nM, 5th percentile 38 nM). Values in that range, when seen in few replicates, are hard to tell from nonspecific mating. The control count says in how many pairings with the empty strains this scFv gave a signal.

CDR-L1	CDR-L2	CDR-L3	group	Kd (apparent)	replicates with signal	control signals
KSSQSDLYESRNEHSVA	WHSTRES	QQYHHLPLS	Ctrl	nd	0/6	0/18
SSSQSVLMESRNKNSVA	WASTRES	QQYHRIPLS	Ctrl	nd	0/6	0/18
KSSQSGLYESRNKNSVA	WASTREY	QQYHRLPLS	Ctrl	47 nM	2/6	0/18
KFSQSKLYESRNKNSVA	WASTREQ	QQYHRLPLS	Ctrl	6.3 nM	6/6	2/18
KMSQSVLYESLNKNSVA	HASTRES	QQYHRLPLS	Ctrl	960 pM	6/6	1/18
KSAQSVLYESRNFNSVA	HASTRED	QQYHRLPLS	GP_HC	2.1 nM	6/6	2/18
KSSQSGLYESRNVNSVA	GASTRDS	QQYHRLPLS	GP_HC	1.9 nM	6/6	2/18
SQSQSVLDESRNKNSVA	EASTRES	KQYHRHPLS	Ctrl	nd	0/6	0/18
KVQQSELYESRNKNSVA	EASQRES	QQYHRLPLS	GP_Gen	3.0 nM	6/6	1/18
KLQQSVLYESRNKNSVA	GASTRES	QDYHRLPLS	GP_Gen	850 pM	6/6	4/18
KLSQSVDYESRNKNSVA	NASTREV	QQYHRLPLS	GP_Gen	1.5 nM	6/6	1/18
KLSQSVLYGSRNKNSVA	NASQRES	QQYHRLPLS	GP_Gen	390 pM	6/6	0/18
HSSPSYAYESRNKNSVA	NASTRES	QQYHRLPLS	GP_HC	4.6 nM	6/6	0/18
KSSQSSLYESRTCNSVA	GASTRES	QQYHRLPLS	Ctrl	7.3 nM	6/6	2/18
KLSQSMLYESRNKNSVA	NASTRVS	QQYHRLPLS	GP_Gen	260 pM	6/6	1/18
KLPQSHLYESRNKNSVA	HASTRLS	QQYHRLPLS	GP_Gen	9.3 nM	6/6	1/18
KSSQSGLYESGNKNSVA	HASTRES	QQYHRLPLS	GP_HC	3.1 nM	6/6	4/18
KSSQSILYESVNSNSVA	HASTRES	QQYHRLPLS	GP_HC	2.6 nM	6/6	1/18
KLSQSVLMESRNSNSVA	EASTRES	QQYHRLPLS	GP_Gen	370 pM	6/6	0/18
KLSQSTLYESRNKNSVA	HASTRLS	QQYHRLPLS	GP_Gen	1.3 nM	6/6	1/18
KLSQSVLYERRNKNSVA	WASTRES	QQYHRLPWS	Ctrl	700 nM	2/6	2/18
KLSQSVLYESRNKNSVA	EASTREY	QQYHRLPLS	GP_Gen	810 pM	6/6	0/18
KSEFSVYYGERNKNSVA	QASTRES	QQYHRLPLS	GP_Gibbs	3.4 nM	6/6	0/18
KVSQSELYESRNKNNVA	NASTRES	QQYHRLPLS	GP_Gen	440 pM	6/6	2/18
KLSESWLYESRNKNSVA	EASTRES	QQYHRLPLS	GP_Gen	1.8 nM	6/6	0/18
KLSQSALYESRNKNSVA	NASTRMS	QQYHRLPLS	GP_Gen	420 pM	6/6	0/18
KISQSELYESRNKNSVA	NASYRES	QQYHRLPLS	GP_Gen	710 pM	6/6	0/18
KLNQSVLYESRNKNSVA	RASTRES	QRYHRLPLS	Ctrl	930 nM	1/6	0/18
KYSQSWIYESRNKNSVA	GASTRES	QQYHRLPLS	GP_HC	380 pM	6/6	1/18
KSSMSYLYESENKNSVA	QASQRES	QQYHRLPLS	GP_HC	8.0 nM	6/6	0/18
KVSQSVLYESRNKNSVA	NASTREG	QQYHRLPLS	GP_HC	590 pM	6/6	0/18
KSDQSVLYESRNKNSVA	AASTRES	QQYHRLPLS	Ctrl	1.9 nM	6/6	1/18
KLQQSWGYESRNKNSVA	NASTRES	QQYHRLPLS	GP_Gen	880 pM	6/6	0/18
KSSQSVLWESRNKNSVA	WASTRES	QQYHRLPLS	Ctrl	750 nM	3/6	1/18
KISQSVEYPSVNKNSVA	WASTRES	QQYHRLPLS	Ctrl	4.1 nM	6/6	1/18
KISQSVLYESRDKNSVA	WASTREP	QQYHRLPLS	Ctrl	6.7 nM	6/6	0/18
KVSQSYLYESRNKNSVA	NASTRES	QQYHRLPLS	GP_Gen	480 pM	6/6	0/18
KLSQSVLGESRNKNSVA	NASTREQ	QQYHRLPLS	GP_Gen	740 pM	6/6	0/18
KVSQSRLYESRNKNSVA	NASQRES	QQYHRLPLS	GP_Gen	2.0 nM	6/6	2/18
KSSQSDLYESRNKNSVA	WASTRES	QQYHRLPFS	Ctrl	110 nM	6/6	0/18
KSSQSVLYESRNFNSVA	GASTRES	GQYHDLPLS	Ctrl	81 nM	4/6	1/18
KLWQSVLYESRNKNSVA	QASTRES	QQYHRLPLS	Ctrl	1.5 nM	6/6	0/18
KQSFSVLNESRNKNSVA	WASTRES	QQYPRLPLS	Ctrl	1.1 µM	1/6	1/18
KMSQSVLEESRDKNSVA	QASTRES	QQYHRLLLS	Ctrl	1.2 nM	6/6	2/18
KLSQSWLYESRNKNSVA	DGSTRES	QQYHRLPLS	GP_HC	900 pM	6/6	2/18
KSQQSWLYESRNKNSVA	GASTREN	QQYHRLPLS	GP_HC	1.5 nM	6/6	2/18
KSSQSVLYESRNKNSVA	QASTRES	QQPHRLPLS	Ctrl	14 nM	6/6	0/18
KLSQSVLYESRMKNNVA	GASTRES	QQYHRLPLS	GP_Gen	850 pM	6/6	0/18
KSSQSVWFESRNKNSVA	DASTRES	QQYHRLPLS	GP_HC	380 pM	6/6	0/18
KLSGSMLYESRNKNSVA	EASTRES	QQYHRLPLS	GP_Gen	620 pM	6/6	2/18
KLSQSVLYESRNKNSVA	GASTRES	QQYHRLPLS	Ctrl+GP_Gen	410 pM	12/12	1/36
KLQQSVLYESRNKNSVA	EASTREQ	QQYHRLPLS	GP_Gen	520 pM	6/6	0/18
KISQSVLYESRNKNSVA	AASTRCS	QQYHRLPLS	Ctrl	1.1 nM	6/6	1/18
KLMQSVLYESRNKNSVA	NASTRES	QQYHRLPLS	GP_Gen	520 pM	6/6	1/18
KSSQSQLYESVNKNSVA	DASTRES	QQYHRLPLS	GP_HC	2.7 nM	6/6	0/18
KSSQSTLYENHNKNSVA	WASTRES	QQYHRDPLS	Ctrl	320 nM	1/6	0/18
KLQQSDLYESRNKNSVA	EASTRES	QQYHRLPLS	GP_Gen	740 pM	6/6	1/18
KLSQSVLYESRNKNSVA	NASQRES	QDYHRLPLS	GP_Gen	890 pM	6/6	2/18
KSYQSVLYESRNKNSVA	HASTRED	QQYHQLPLS	GP_HC	1.6 nM	6/6	0/18
KSSQSVLVESRNKNSVA	WASHRES	QQYVRLPLS	Ctrl	84 nM	4/6	1/18
KLQQSVLYEGRNKNSVA	QASTRSD	QQYHRLPLS	GP_Gibbs	820 pM	6/6	0/18
VLQQSVLPESRNKNSVA	HASTRLS	QQYHRLPLS	GP_Gibbs	7.9 nM	6/6	3/18
KFSQSVLMESRNKNSVA	EASTRES	QQYHRLPLS	GP_Gen	830 pM	6/6	3/18
KSSQSVLYEWENKNSVA	WCSTRES	QTYHRLPLS	Ctrl	nd	0/6	1/18
KSQISFLYESRNKNSVA	EASTRES	QQYHRLPLS	GP_HC	570 pM	6/6	0/18
KMSQSVLMEHRNKNSVA	SASLRES	QQYHRLPLS	GP_HC	1.9 nM	6/6	0/18

7 of these entries, quoted again:

CDR-L1	CDR-L2	CDR-L3	group	Kd (apparent)	replicates with signal	control signals
KVSQSRLYESRNKNSVA	NASQRES	QQYHRLPLS	GP_Gen	2.0 nM	6/6	2/18
KLQQSVLYESRNKNSVA	EASTREQ	QQYHRLPLS	GP_Gen	520 pM	6/6	0/18
KLSQSVLYESRNKNSVA	NASQRES	QDYHRLPLS	GP_Gen	890 pM	6/6	2/18
KLSQSVLYGSRNKNSVA	NASQRES	QQYHRLPLS	GP_Gen	390 pM	6/6	0/18
KSSQSVLYESRNKNSVA	QASTRES	QQPHRLPLS	Ctrl	14 nM	6/6	0/18
KLSESWLYESRNKNSVA	EASTRES	QQYHRLPLS	GP_Gen	1.8 nM	6/6	0/18
KSYQSVLYESRNKNSVA	HASTRED	QQYHQLPLS	GP_HC	1.6 nM	6/6	0/18

Of ten entries with the parent sequence, four were seen in most replicates (averages 2.2 nM to 240 nM), three in one and three in none, so single entries are noisy. Some sequences occur more than once in the pool; their replicates are pooled. A sequence measured in both rounds can read differently, since the two assays cover different ranges. The authors' rule: three or more of the six replicates give a measured affinity, fewer mean a poor binder.